From article PMC9613624 (Journal of medicinal chemistry, 2022) come the findings set out here.

Molecules are shown by their SMILES.

This test concerns SW620 cells. The test can be described thus: Colony formation assay in SW620 cells. To be noted: 2 weeks, crystal violet. It counts as cell-based.

`Nc1ncccc1-c1nc2ccc(-c3ccccc3)nc2n1-c1ccc(C2(N)CCC2)cc1` [ARQ-092, 3-(3-(4-(1-Aminocyclobutyl)phenyl)-5-phenyl-3H-imidazo[4,5-b]pyridin-2-yl)pyridin −2-amine, reference compound]: the “inhibition of colony formation (in words)” value is recorded as “comparative ability in inhibiting colony formation”.
